Data from patent US11274073B2, “TRPV1 modulator compounds” (ANTALGENICS, S.L., priority 2017, dated 2022).

By UniProt entry, the sequences of proteins in these tests, tags left out.
UniProt O35433, whole entry: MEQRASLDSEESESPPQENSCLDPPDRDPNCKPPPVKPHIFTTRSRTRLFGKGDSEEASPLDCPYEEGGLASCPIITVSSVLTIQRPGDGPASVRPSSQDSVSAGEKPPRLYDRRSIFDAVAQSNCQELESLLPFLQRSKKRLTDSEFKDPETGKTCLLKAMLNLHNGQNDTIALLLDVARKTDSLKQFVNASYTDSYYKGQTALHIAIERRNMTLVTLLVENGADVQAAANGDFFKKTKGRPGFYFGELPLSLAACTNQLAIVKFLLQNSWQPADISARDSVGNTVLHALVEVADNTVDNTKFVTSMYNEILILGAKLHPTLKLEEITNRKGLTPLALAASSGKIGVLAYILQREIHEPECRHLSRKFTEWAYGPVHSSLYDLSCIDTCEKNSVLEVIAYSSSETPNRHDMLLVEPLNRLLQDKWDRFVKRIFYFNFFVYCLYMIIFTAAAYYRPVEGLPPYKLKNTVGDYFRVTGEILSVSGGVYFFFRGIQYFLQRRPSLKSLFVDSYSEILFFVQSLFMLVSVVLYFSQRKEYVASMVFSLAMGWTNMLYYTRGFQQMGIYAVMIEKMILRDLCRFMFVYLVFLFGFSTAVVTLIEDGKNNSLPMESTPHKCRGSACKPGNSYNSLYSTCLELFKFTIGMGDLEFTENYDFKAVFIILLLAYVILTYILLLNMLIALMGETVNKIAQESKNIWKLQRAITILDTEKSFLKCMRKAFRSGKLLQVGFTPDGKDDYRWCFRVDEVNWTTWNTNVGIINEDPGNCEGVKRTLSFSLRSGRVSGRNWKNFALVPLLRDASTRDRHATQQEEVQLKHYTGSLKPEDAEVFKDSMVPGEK

Target: rat TRPV1 channel (Rattus norvegicus, UniProt O35433)
Assay: Calcium microfluorometry assay on TRPV1-SH-SY5Y cells, single concentration 10 μM
Assay type: cell-based
Details: compound 10 μM before stimulation with 10 μM capsaicin, RR (10 μM Ruthenium Red) = 100%

COc1cc(CNC(=O)COC(=O)/C=C(\C)CCC=C(C)C)c(I)cc1O
TRPV1 blockage at 10 μM (% ± SD): 77.28 ± 11.85%
